Data on seven molecules can be found in ChEMBL document CHEMBL1140903, “Reactions of functionalized sulfonamides: application to lowering the lipophilicity of cytosolic phospholipase A2alpha inhibitors” (J Med Chem, 2009).

The assay addresses T1, Cytosolic phospholipase A2 (Homo sapiens, UniProt P47712).
T1 sequence (P47712 whole entry): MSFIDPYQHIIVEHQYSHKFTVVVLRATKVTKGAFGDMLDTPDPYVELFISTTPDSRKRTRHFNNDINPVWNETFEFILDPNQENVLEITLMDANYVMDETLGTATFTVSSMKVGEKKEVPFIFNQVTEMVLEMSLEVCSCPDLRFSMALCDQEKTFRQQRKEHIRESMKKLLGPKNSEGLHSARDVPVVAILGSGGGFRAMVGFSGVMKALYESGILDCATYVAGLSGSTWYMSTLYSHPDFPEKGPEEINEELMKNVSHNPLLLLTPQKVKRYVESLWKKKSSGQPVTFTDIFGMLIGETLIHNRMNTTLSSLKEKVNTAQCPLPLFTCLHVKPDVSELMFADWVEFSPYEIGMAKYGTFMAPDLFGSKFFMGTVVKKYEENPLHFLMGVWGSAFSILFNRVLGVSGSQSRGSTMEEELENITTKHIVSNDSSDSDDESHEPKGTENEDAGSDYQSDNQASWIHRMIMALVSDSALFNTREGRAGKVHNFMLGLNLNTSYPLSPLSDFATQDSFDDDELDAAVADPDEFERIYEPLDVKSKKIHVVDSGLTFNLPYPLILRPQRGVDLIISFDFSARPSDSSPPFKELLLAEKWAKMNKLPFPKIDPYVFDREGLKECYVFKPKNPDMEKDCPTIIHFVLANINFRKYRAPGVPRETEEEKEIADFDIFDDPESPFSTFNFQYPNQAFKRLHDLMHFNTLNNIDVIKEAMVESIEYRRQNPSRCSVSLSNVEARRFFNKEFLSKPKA
Put plainly: Inhibition of human cytosolic PLA2alpha by GLU micelle assay. An outline of the steps:
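Purified human cPLA2α with the substrate 7-hydroxycoumarinyl-γ-linolenate (GLU), presented in micelles containing a high concentration of detergent and lipid. IC50 is taken from at least two runs, each run the mean of duplicate assays.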
On to `CC1CN(CCS(=O)(=O)NCCc2c(CCOc3ccc(C(=O)O)cc3)c3cc(Cl)ccc3n2C(c2ccccc2)c2ccccc2)CC(C)N1` (configuration not stated), for which the half-inhibitory concentration (IC50) amounted to 600 nM. In turn, `O=C(O)c1ccc(OCCc2c(CCNS(=O)(=O)CCn3ccnc3)n(C(c3ccccc3)c3ccccc3)c3ccc(Cl)cc23)cc1` yielded a concentration for half-maximal inhibition (IC50) of 550 nM. The molecule `CC1C(=O)NCCN1CCS(=O)(=O)NCCc1c(CCOc2ccc(C(=O)O)cc2)c2cc(Cl)ccc2n1C(c1ccccc1)c1ccccc1` (configuration not stated) displayed an IC50 of 200 nM.

Molecule `O=C(O)c1ccc(OCCc2c(CCNS(=O)(=O)CCN3CCSCC3)n(C(c3ccccc3)c3ccccc3)c3ccc(Cl)cc23)cc1` displayed an IC50 of 170 nM.

Molecule `O=C(O)c1ccc(OCCc2c(CCNS(=O)(=O)CCN3CCSC3)n(C(c3ccccc3)c3ccccc3)c3ccc(Cl)cc23)cc1` came in with a half-inhibitory concentration (IC50) of 330 nM. For `CC(=O)N1CCN(CCS(=O)(=O)NCCc2c(CCOc3ccc(C(=O)O)cc3)c3cc(Cl)ccc3n2C(c2ccccc2)c2ccccc2)CC1`, the IC50 stood at 490 nM.

`O=C(O)c1ccc(OCCc2c(CCNS(=O)(=O)CCn3cccn3)n(C(c3ccccc3)c3ccccc3)c3ccc(Cl)cc23)cc1` gave an IC50 of 320 nM.
